{"sequences": {"note": "By UniProt entry, the sequences of proteins in these tests, tags left out.", "UniProt P12657, whole entry": "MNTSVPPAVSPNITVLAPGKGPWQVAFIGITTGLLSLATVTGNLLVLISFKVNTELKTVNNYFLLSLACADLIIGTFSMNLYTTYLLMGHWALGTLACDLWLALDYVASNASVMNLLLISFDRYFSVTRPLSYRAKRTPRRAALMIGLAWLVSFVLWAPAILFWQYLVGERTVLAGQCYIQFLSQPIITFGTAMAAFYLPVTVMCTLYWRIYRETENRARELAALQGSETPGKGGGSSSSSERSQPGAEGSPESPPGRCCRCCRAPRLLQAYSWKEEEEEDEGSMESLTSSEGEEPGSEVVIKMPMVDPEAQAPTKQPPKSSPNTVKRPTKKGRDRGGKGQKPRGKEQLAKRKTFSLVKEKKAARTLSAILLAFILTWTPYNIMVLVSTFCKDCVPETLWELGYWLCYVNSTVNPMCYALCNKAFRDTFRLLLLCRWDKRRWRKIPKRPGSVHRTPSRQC", "UniProt P08482, whole entry": "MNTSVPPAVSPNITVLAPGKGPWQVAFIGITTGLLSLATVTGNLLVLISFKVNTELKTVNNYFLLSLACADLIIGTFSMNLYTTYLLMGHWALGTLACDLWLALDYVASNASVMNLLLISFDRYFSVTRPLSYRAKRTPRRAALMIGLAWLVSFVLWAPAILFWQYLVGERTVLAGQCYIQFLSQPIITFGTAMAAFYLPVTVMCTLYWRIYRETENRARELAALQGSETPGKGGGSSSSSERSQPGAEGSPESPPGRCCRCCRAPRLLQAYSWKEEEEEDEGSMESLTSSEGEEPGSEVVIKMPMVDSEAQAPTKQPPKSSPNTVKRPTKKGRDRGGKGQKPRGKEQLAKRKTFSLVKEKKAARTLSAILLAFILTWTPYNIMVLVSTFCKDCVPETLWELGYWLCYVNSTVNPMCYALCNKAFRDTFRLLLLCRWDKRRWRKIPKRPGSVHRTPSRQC"}, "source": "paper PMC2774619", "about": "(Current Chemical Genomics, 2008)", "key": {"[1]": {"target": "murine M1 muscarinic acetylcholine receptor (Mus musculus, UniProt P12657)", "experiment": "Intracellular calcium assay in CHO-M1 cells (1536-well, FDSS-7000)", "conditions": "read-out: IC50, Calcium Assay, LOPAC qHTS, 15 concentrations, antagonist mode with EC80 carbachol, tested form: dibromide"}, "[2]": {"target": "murine M1 muscarinic acetylcholine receptor (Rattus norvegicus, UniProt P08482)", "experiment": "HTRF IP-One assay in CHO-M1 cells (1536-well)", "conditions": "read-out: IC50, IP-One Assay, LOPAC qHTS, 15 concentrations, antagonist mode with EC80 carbachol, tested form: dibromide"}}}
{"smiles": "C=CC[N+](C)(C)c1ccc(CCC(=O)CCc2ccc([N+](C)(C)CC=C)cc2)cc1", "values": [{"measurement": "IC50", "setting": "[1]", "result": 6.31, "unit": "µM"}, {"measurement": "IC50", "setting": "[2]", "result": 12.6, "unit": "µM"}]}
